According to patent US20200299407 (published 2020):

Target: HER2 (human, UniProt P04626)
Test: SPR

B1: CrossMabXPer Trastuzumab arm (antibody)
chain 1: [letters of about 120 residues left out]
chain 2: DIQMTQSPSSLSASVGDRVTITCRASQDVNVAVAWYQQKPGKAPKLLIYSASFLYSGVPSRFSGSRSGTDFTLTISSLQPEDFATYYCQQHYTTPPTFGQGTKVEIK
Kd: 0.74 nM
